Source: patent US20180008587A1, “THIOHYDANTOIN ANDROGEN RECEPTOR ANTAGONISTS FOR THE TREATMENT OF CANCER” (Jaressen Pharmaceutica NV, priority 2016, published 2018)

The chains behind the UniProt entries cited, without tags or fusion partners.
UniProt P10275, whole entry: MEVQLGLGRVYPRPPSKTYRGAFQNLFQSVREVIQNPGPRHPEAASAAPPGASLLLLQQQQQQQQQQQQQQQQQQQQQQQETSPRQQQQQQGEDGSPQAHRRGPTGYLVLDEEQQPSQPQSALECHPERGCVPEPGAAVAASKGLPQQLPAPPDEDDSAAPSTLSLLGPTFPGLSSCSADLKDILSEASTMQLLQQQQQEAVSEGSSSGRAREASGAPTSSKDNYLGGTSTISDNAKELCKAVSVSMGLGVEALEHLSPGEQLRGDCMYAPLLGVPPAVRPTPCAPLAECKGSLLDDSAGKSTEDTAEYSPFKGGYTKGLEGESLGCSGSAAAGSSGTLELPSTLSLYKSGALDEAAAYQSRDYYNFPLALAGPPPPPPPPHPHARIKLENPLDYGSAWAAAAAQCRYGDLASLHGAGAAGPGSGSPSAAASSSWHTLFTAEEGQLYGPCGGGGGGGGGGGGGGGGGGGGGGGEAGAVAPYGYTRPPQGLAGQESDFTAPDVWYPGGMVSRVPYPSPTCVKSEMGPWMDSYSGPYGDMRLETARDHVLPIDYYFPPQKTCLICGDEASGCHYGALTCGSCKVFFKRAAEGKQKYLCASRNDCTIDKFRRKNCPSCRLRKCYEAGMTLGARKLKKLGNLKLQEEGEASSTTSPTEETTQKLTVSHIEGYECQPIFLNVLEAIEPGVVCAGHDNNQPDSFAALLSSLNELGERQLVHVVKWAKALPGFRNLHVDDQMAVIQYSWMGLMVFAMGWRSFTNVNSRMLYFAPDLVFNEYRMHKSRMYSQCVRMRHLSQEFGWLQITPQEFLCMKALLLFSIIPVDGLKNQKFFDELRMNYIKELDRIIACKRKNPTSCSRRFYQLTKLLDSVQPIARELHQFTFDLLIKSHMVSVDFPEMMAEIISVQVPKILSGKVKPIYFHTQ

Experiments:
[1] = target: T1, wild-type Androgen Receptor (AR-wt) (Homo sapiens, UniProt P10275); test: LNCaP-AR-wt ANT reporter assay (ARE firefly luciferase, antagonist mode); type: cell-based; settings: 400 pM R-1881 challenge, −Log10(IC50 [Molar])
[2] = target: T1, wild-type Androgen Receptor (AR-wt); test: LNCaP-AR-wt AG reporter assay (ARE firefly luciferase, agonist mode); type: cell-based

CNC(=O)c1ccc(N2C(=S)N(c3cnc(C#N)c(C)c3)C(=O)C23CCCC3)cc1F
LNCaP-AR-wt ANT pIC50 [1]: 6.38
LNCaP-AR-wt AG pEC50 ([2]; agonist mode, −Log10(EC50 [Molar])): <4.82
LNCaP-AR-wt AG MAX % Stim ([2]; maximum % stimulation (agonist response) over tested concentration range): 1.2%
